Source: patent publication US20250170111A1, “PYRIDINE BASED CHALCONE ANALOGS AS THERAPEUTIC AGENTS AND USE THEREOF” (QATAR UNIVERSITY, priority 2023, published 2025)

System: PC3 and DU145

COc1ccc2c(c1)CC/C(=C\c1cccn1C1CC1)C2=O [Compound 7, (E)-2-((1-cyclopropyl-1H-pyrrol-2-yl)methylene)-6-methoxy-3,4-dihydronaphthalen-1 (2H)-one] was tested. Which “cytotoxicity in general screening (in words)” value did it give?
The value was “comparable cytotoxicity to DK14”.
